Target: D3R (Homo sapiens, UniProt P35462)
Assay: β-arrestin recruitment assay
Settings: curve shift, Gaddum/Schild model, Schild slope of unity, equation 5

Sequences of proteins named here, by UniProt entry; tags and fusion partners are left off. A change or cut given only in a name is not applied to a line headed by its entry.
UniProt P35462, whole entry: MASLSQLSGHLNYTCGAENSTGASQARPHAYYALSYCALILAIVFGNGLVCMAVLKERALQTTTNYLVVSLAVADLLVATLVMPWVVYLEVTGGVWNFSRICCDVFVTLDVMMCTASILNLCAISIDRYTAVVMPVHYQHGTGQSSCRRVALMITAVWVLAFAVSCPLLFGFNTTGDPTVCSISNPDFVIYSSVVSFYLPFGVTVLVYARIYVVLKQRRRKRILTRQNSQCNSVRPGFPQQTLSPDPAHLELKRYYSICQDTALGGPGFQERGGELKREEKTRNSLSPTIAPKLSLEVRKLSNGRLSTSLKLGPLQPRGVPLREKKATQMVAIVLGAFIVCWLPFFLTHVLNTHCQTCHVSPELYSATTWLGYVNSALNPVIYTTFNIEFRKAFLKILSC

CCN1CCCC1CNC(=O)c1cc(S(N)(=O)=O)ccc1OC (stereo not shown) [sulpiride]
pA2 at D3R: 7.40 ± 0.10

Reference: publication PMC5325712 (Journal of medicinal chemistry, 2017)
